OPERA 2.9 data: properties

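These are experimental values that the OPERA curators gathered from public databases to train and test their QSAR models. One number stands for a compound and property, with no spread given. How each value was measured is not recorded, so precision varies. A value may pool stereoisomers or salt forms, and the file does not say which form was measured. Unmarked limits or estimates from the upstream databases cannot be ruled out.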

Melting points are in °C.
The boiling point refers to atmospheric pressure (760 mmHg), by the definition of the set.
The octanol-water partition coefficient is given as log10; larger values mean a more lipophilic compound.
Water solubility is log10 of mol/L, nominally at 25 °C; higher is more soluble.
Vapor pressure is log10 of mmHg; the set covers 15 to 30 °C, mostly 20 to 25 °C.
The Henry's law constant is on a log10 scale in atm·m3/mol (set defined at 25 °C); higher favours air over water.
fu is the fraction unbound in human plasma, from 0 to 1.
Intrinsic clearance (human, µL/min per 10^6 hepatocytes): higher is faster turnover, and 0 stands for none detected.
"n/a" marks a cell with nothing listed here.

The entry for Cc1cc(C(C)(C)c2cc(C)c(O)c(C)c2)cc(C)c1O [4,4'-Propane-2,2-diylbis(2,6-dimethylphenol)] lists log Kow 4.5 and log S -4.953 (log10 mol/L) and log vapor pressure -7.483 (log10 mmHg). C[C@]12CC[C@H]3[C@@H](C4CC4[C@]4(O)C[C@@H](O)CC[C@]34C)[C@@H]1[C@@H]1C[C@@H]1C2=O (stereo not given in full) has log Kow 2.06 and log S -3.346 (log10 mol/L). CNC(=O)c1cc(Cl)cc(C)c1NC(=O)c1cc(Br)nn1-c1ncccc1Cl [Chlorantraniliprole] is reported with melting point 209 °C and log Kow 2.76 and log S -5.68 (log10 mol/L). FC(F)(F)/C=C\C(F)(F)F [(Z)-1,1,1,4,4,4-Hexafluoro-2-butene] is reported with bp 33.33 °C and log Kow 2.3 and log S -2.55 (log10 mol/L). Clc1cccc(Cl)c1-c1c(Cl)cccc1Cl is reported with melting point 198 °C and log vapor pressure -3.021 (log10 mmHg). C=CCc1ccc(OC)cc1 [Estragole] is reported with melting point 11.9 °C and log Kow 3.4.

The entry for CCCCC(CC)COP(=S)([S-])OCC(C)C.CCCCC(CC)COP(=S)([S-])OCC(C)C.[Zn+2] (stereo not given) lists melting point -10.15 °C and log S -2.958 (log10 mol/L). C=CCC1=C(C)C(OC(=O)C2C(C=C(C)C)C2(C)C)CC1=O (stereo not given) [Allethrin] is reported with bp 282 °C and Henry's law constant -4.545 (log10 atm·m3/mol) and plasma fu 0.29. ClC1=C(Cl)[C@]2(Cl)[C@H]3[C@H]([C@@H]4C=C[C@H]3C4)[C@@]1(Cl)C2(Cl)Cl [Aldrin] is reported with plasma fu 0.0134 and Clint 0 µL/min/10^6 cells. FC(F)=C(F)OC(F)(F)C(F)(F)F [Perfluoroethyl vinyl ether] has log Kow 3.29 and log S -4.954 (log10 mol/L). CCNC(=O)CSP(=S)(OC)OC [Ethoate-methyl] is reported with log vapor pressure -5.034 (log10 mmHg) and Henry's law constant -4.552 (log10 atm·m3/mol). Cc1ccc(S(=O)(=O)NCCCCCC(=O)O)cc1 [Hexanoic acid, 6-[[(4-methylphenyl)sulfonyl]amino]-] has melting point 112 °C and log S -2.91 (log10 mol/L) and log vapor pressure -8.345 (log10 mmHg).

CCCC(C)O[N+](=O)[O-] (stereo not given) [1-Methylbutyl nitrate] has log S -2.48 (log10 mol/L) and log vapor pressure 0.71 (log10 mmHg). Listed for Brc1cc(Br)c(Oc2ccc(Br)c(Br)c2)c(Br)c1 [2,3',4,4',6-Pentabromodiphenyl Ether]: melting point 86.5 °C and log Kow 6.71 and log S -11.8 (log10 mol/L) and log vapor pressure -6.417 (log10 mmHg). The entry for CN(C)C1CCCCC1 [N,N-Dimethylcyclohexylamine] lists log Kow 2.01 and log vapor pressure 0.376 (log10 mmHg). CN(C)C1CSSSC1 [N,N-Dimethyl-1,2,3-trithian-5-amine] is reported with log vapor pressure -5.388 (log10 mmHg) and Henry's law constant -10.75 (log10 atm·m3/mol). The entry for NS(=O)(=O)C(F)(F)C(F)(F)C(F)(F)C(F)(F)C(F)(F)C(F)(F)C(F)(F)C(F)(F)F [Perfluorooctanesulfonamide] lists melting point 151.5 °C and plasma fu 0.001515. The entry for Cc1cc(C)nc(Nc2ccccc2)n1 [Pyrimethanil] lists Henry's law constant -7.449 (log10 atm·m3/mol) and plasma fu 0.01746 and Clint 43.89 µL/min/10^6 cells.

Fc1ccccc1C1=NCC(=S)N(CC(F)(F)F)c2ccc(Cl)cc21 [Quazepam] is reported with log S -5.224 (log10 mol/L) and plasma fu 0.05. Listed for O=C([O-])c1c(Cl)c(Cl)c(Cl)c(Cl)c1-c1c2cc(Br)c(=O)c(Br)c-2oc2c(Br)c([O-])c(Br)cc12.O=C([O-])c1c(Cl)c(Cl)c(Cl)c(Cl)c1-c1c2cc(Br)c(=O)c(Br)c-2oc2c(Br)c([O-])c(Br)cc12.O=C([O-])c1c(Cl)c(Cl)c(Cl)c(Cl)c1-c1c2cc(Br)c(=O)c(Br)c-2oc2c(Br)c([O-])c(Br)cc12.[Al+3].[Al+3] [D&C Red No. 27 aluminum lake]: log Kow 4.29 and log S -6.49 (log10 mol/L). Listed for NC1CCC(CC2CCC(N)CC2)CC1 (stereo not given) [4,4'-Diaminodicyclohexylmethane]: log Kow 2.115 and log S -1.723 (log10 mol/L) and log vapor pressure -3.87 (log10 mmHg). For [Cr+3].[NH-]c1c(/N=N/c2cc([N+](=O)[O-])cc([N+](=O)[O-])c2[O-])cc(S(=O)(=O)[O-])c2ccccc12.[NH-]c1c(/N=N/c2cc([N+](=O)[O-])cc([N+](=O)[O-])c2[O-])cc(S(=O)(=O)[O-])c2ccccc12.[Na+].[Na+].[Na+] the data give log Kow -4.02 and log S -2.448 (log10 mol/L). For O=C(Cc1ccccc1)N/C(=N\OCC1CC1)c1c(C(F)(F)F)ccc(F)c1F [Cyflufenamid] the data give log S -5.9 (log10 mol/L) and log vapor pressure -6.575 (log10 mmHg) and Henry's law constant -6.557 (log10 atm·m3/mol). For C=CCOC(=O)C(C)(C)OC(=O)c1cc(-n2c(=O)cc(C(F)(F)F)n(C)c2=O)ccc1Cl [Butafenacil] the data give bp 301.7 °C and log vapor pressure -10.26 (log10 mmHg).

A selection of 2 entries from above:

SMILES	name	melting point (°C)	bp (°C)	log Kow	log S (log10 mol/L)	log vapor pressure (log10 mmHg)	Henry's law constant (log10 atm·m3/mol)	plasma fu	Clint (µL/min/10^6 cells)
C[C@]12CC[C@H]3[C@@H](C4CC4[C@]4(O)C[C@@H](O)CC[C@]34C)[C@@H]1[C@@H]1C[C@@H]1C2=O (stereo not given in full)	n/a	n/a	n/a	2.06	-3.346	n/a	n/a	n/a	n/a
Cc1cc(C)nc(Nc2ccccc2)n1	Pyrimethanil	n/a	n/a	n/a	n/a	n/a	-7.449	0.01746	43.89

Source: data files of OPERA 2.9 (Mansouri et al.), github.com/kmansouri/OPERA.